Laboratory results taken from patent US9079970B2, “Methods and compositions for specific modulation of MCL-1” (Dana Farber Cancer Institute, Inc., priority 2008, dated 2015).
Entries after “also recorded” stand apart in the source; their conditions may differ.

Assays:
[1] = test system: wild-type mouse liver mitochondria (BAK-mediated cytochrome c release); experiment: Cytochrome c release assay, wild-type mouse liver mitochondria; assay type: biochemical
Procedure: (§1) Mouse liver mitochondria (0.5 mg/mL) were isolated and cytochrome c release assays performed according to established methods (Pitter et al., Methods Enzymol 446, 387 (2008). Briefly, isolated mitochondria were incubated at 37° C. for 40 minutes in the presence of a serial dilution of MCL-1 SAHBs, singly or in combination with BID BH3 peptide. The pellet and supernatant fractions were isolated by centifugation, and cytochrome c was quantitated using a colorimetric ELISA assay (R&D Systems). Percent cytochrome c released into the supernatant (% cytocsup) from releasable mitochondrial pools was calculated according to the following equation: % cytoc=[(cytocsup-cytocbackgr)/(cytoctotal-cytocbackgr)]*100, where background release represents cytochrome c detected in the supernatant of vehicle-treated (1% DMSO) samples and total release represents cytochrome c measured in 1% Triton-X 100 treated samples.
(§2) Three in vitro assays were used to verify the capacity of selective MCL-1-targeting SAHBs to sensitize mitochondrial apoptosis. […] FP (mP units) was measured at equilibrium by microplate reader (e.g., Spectramax) and Ki values calculated by nonlinear regression analysis of dose-response curves using Prism software (Graphpad). […] The relative amount of cytochrome c released into the supernatant was quantified by ELISA assay per the manufacturer's protocol (Roche®). […]

Bak−/− mitochondria = experiment: Cytochrome c release assay, Bak−/− mitochondria; assay type: biochemical, mouse; details: with BID BH3
Procedure: as §1, §2

[2] = test system: Jurkat T-cell leukemia cells; experiment: Cell viability by MTT assay, Jurkat; assay type: cell-based; details: MTT at 24 hours
Procedure: (§3) For viability testing, OPM2 and Jurkat cells (4×10^4) were treated with the indicated agents in Opti-MEM media at 37° C. in a final volume of 100 μL. Cell viability was measured at 24 hours by MTT assay, for which cells were incubated with 20 μL thiazolyl blue tetrazolium bromide (5 mg/mL in DPBS) at 37° C. for 4 hours, the precipitate solubilized with 0.1 N HCl isopropanol (100 μL), and absorbance measured at 570 nm and 650 nm.

[3] = test system: OPM2 multiple myeloma cells; experiment: Cell viability by MTT assay, OPM2; assay type: cell-based; details: MTT at 24 hours
Procedure: as §3, with “OPM2 multiple myeloma cells and Jurkat T-cell leukemia were passaged and maintained in RPMI 1640 medium (Invitrogen) supplemented with 10% fetal bovine serum, 100 U/mL penicillin, 100 μg/mL streptomycin, 2 mM L-glutamine, 50 mM HEPES and 50 μM β-mercaptoethanol. For” for “For”

[4] = test system: caspase 3/7 in Jurkat cells; experiment: Caspase 3/7 activation assay, Jurkat; assay type: cell-based; details: combined with low dose TRAIL and FasL, 4 hours
Procedure: (§4) OPM2 and Jurkat cells (2×10^4 cells) were treated with the indicated agents in Opti-MEM media at 37° C. in a final volume of 50 Caspase 3/7 activation was measured at 4 hours using the ApoONE Caspase 3/7 kit according to the manufacturer's instructions (Promega). For synergy studies with TRAIL and FASL, cells were treated simultaneously with MCL-1 SAHB and the death receptor ligands.

[5] = test system: caspase 3/7 in OPM2 cells; experiment: Caspase 3/7 activation assay, OPM2; assay type: cell-based; details: 4 hours
Procedure: as §4

[6] = Circular dichroism, percent α-helicity; assay type: physicochemical
Procedure: To evaluate secondary structure improvements of hydrocarbon-stapled peptides, circular dichroism (CD) spectra were recorded and analyzed on an Aviv Biomedical spectrometer (model 410), as has been previously reported (Walensky et al Science, 2004; Bird et al. Methods in Enzymology, 2008). […] The α-helicity of MCL-1 targeting SAHBs were compared to their unmodified counterparts by CD. A total of five scans from 190-260 nm in 0.5 nm increments with 0.5 sec averaging time were collectively averaged to obtain each spectrum using a 1 mm path length cell. The target peptide concentration for CD studies was 25-50 μM in 50 mM potassium phosphate (pH 7.5) or Milli-Q deionized water, and exact concentrations were confirmed by quantitative amino acid analysis of two CD sample dilutions. The CD spectra were initially plotted as wavelength versus millidegree. Once the precise peptide concentration was confirmed, the mean residue ellipticity [θ], in units of degree·cm^2·dmol^−1·residue^−1, was derived from the equation, [θ]=millidegree/molar concentration/number of amino acid residues. After conversion to mean residue ellipticity, percent α-helicity was calculated using the equation, % helicity=100×[θ]222/^max[θ]222, where ^max[θ]222=−40,000×[1−(2.5/number of amino acid residues). […]

recombinant BCL-wΔC = experiment: Fluorescence polarization direct binding of FITC-SAHBs to BCL-wΔC; details: FPA
Procedure: Binding assays were performed as previously described (Pitter et al., Methods Enzymol 446, 387 (2008). Briefly, FITC-SAHB (50 nM) was added to serial dilutions of FPLC-purified recombinant protein in binding buffer (50 mM Tris, 100 mM NaCl, pH 8.0). For competition assays, serial dilutions of acetylated MCL-1 SAHBs were mixed with FITC-BAK SAHB (25 nM), followed by addition of MCL-1ΔNΔC (100 nM) diluted in binding buffer (50 mM Tris, 100 mM NaCl, pH 8.0). Multiwell plates were incubated in the dark at room temperature until equilibrium was reached and fluorescence polarization (mP units) was measured by microplate reader (SpectraMax, Molecular Devices). For direct binding experiments, dissociation constants (KD) were calculated by nonlinear regression analysis of dose-response curves using Prism software (Graphpad). For competition experiments, Ki values were determined by nonlinear regression analysis of dose-response curves using a one-site competition model.
Compounds that bound MCL-1 with high affinity were analyzed for MCL-1 selectivity by measuring SAHB affinities for recombinant BCL-XLΔC, BCL-WΔC and BFL-1/A1ΔC (FIG. 8B). […] The purified proteins were incubated with FITC-SAHBs, and binding affinities were analyzed by fluorescence polarization assay as described above. […]

Jurkat cells = experiment: Live confocal microscopy of cellular uptake and localization; assay type: cell-based; details: FITC-SAHB
Procedure: In addition to FACS-based analysis, live confocal microscopy was used to visualize cellular uptake and intracellular localization of MCL-1 targeting SAHBs. For live confocal microscopy, Jurkat cells were incubated with FITC-SAHB and live cell organelle markers (e.g., dextran to label pinosomes, Mitotracker to label mitochondria). At defined time points (e.g., 4, 8, 12, and 24 hours), cells were washed twice with PBS, resuspended in PBS, wet mounted and imaged by confocal microscopy. […] Cell permeability and intracellular targeting can also be optimized through site-directed mutagenesis; for example, converting negatively charged residues to neutral or positively charged residues (e.g. SEQ ID NO: 39) can enhance cellular uptake as was previously reported (Bernal et al JACS, 2007).

SMILES	cytochrome c release by SAHB alone ([1]; wild-type mitochondria, absence of BID BH3)	sensitization of BID BH3-induced cytochrome c release ([1]; wild-type mouse liver mitochondria, with BID BH3)	cytochrome c release from Bak−/− mitochondria (Bak−/− mitochondria)	Jurkat cell viability, single agent [2]	sensitization of Jurkat cells to FasL ([2]; combined with low dose FasL)	sensitization of Jurkat cells to TRAIL ([2]; combined with low dose TRAIL)	OPM2 cell viability, single agent [3]	sensitization of OPM2 cells to FasL ([3]; combined with low dose FasL)	sensitization of OPM2 cells to TRAIL ([3]; combined with low dose TRAIL)	caspase 3/7 activation in Jurkat cells [4]	caspase 3/7 activation in OPM2 cells with FasL ([5]; combined with low dose FasL)	caspase 3/7 activation in OPM2 cells with TRAIL ([5]; combined with low dose TRAIL)	percent α-helical content [6] [%]	BCL-w binding (recombinant BCL-wΔC)	cellular uptake and intracellular localization (Jurkat cells)
CC(C)C[C@H](NC(=O)[C@H](C)NC(=O)[C@@H](N)CCCCN)C(=O)N[C@@H](CCC(=O)O)C(=O)N[C@H](C(=O)N[C@@H](CC(C)C)C(=O)N[C@@H](CCCNC(=N)N)C(=O)N[C@@H](CCCNC(=N)N)C(=O)N[C@H](C(=O)NCC(=O)N[C@@H](CC(=O)O)C(=O)NCC(=O)N[C@H](C(=O)N[C@@]1(C)CCC/C=C\CCC[C@@](C)(C(=O)N[C@H](C(=O)N[C@@H](C)C(=O)N[C@@H](Cc2ccccc2)C(N)=O)[C@@H](C)O)NC(=O)[C@H](Cc2c[nH]cn2)NC(=O)[C@H](CC(N)=O)NC(=O)[C@H](CCCNC(=N)N)NC1=O)C(C)C)C(C)C)[C@@H](C)O [MCL-1 SAHBD]	no effect on the mitochondria in the absence of BID BH3	dose-responsive enhancement of BAK-mediated cytochrome c release; also recorded: dose-responsively sensitizes BID BH3-induced and BAK-dependent mitochondrial apoptosis	no release was observed	no effect on cell viability even at 40 μM dosing	dose-responsively sensitized; also recorded: dose-responsive and caspase-dependent sensitization	dose-responsively sensitized; also recorded: dose-responsive and caspase-dependent sensitization	no effect on cell viability even at 40 μM dosing	no effect on OPM2 cells exposed to FasL	selectively sensitized OPM2 cells to TRAIL; also recorded: dose-responsive and caspase-dependent sensitization	dose-responsive activation of caspase 3/7	but not FasL	dose-responsive activation of caspase 3/7	91	–	–
CC(C)C[C@H](NC(=O)[C@H](C)NC(=O)[C@@H](N)CCCCN)C(=O)N[C@@H](CCC(=O)O)C(=O)N[C@H](C(=O)N[C@@H](CC(C)C)C(=O)N[C@@H](CCCNC(=N)N)C(=O)N[C@@]1(C)CCCC=CCCC[C@@](C)(C(=O)N[C@H](C(=O)N[C@@H](CCC(N)=O)C(=O)N[C@@H](CCCNC(=N)N)C(=O)N[C@@H](CC(N)=O)C(=O)N[C@@H](Cc2c[nH]cn2)C(=O)N[C@@H](CCC(=O)O)C(=O)N[C@H](C(=O)N[C@@H](C)C(=O)N[C@@H](Cc2ccccc2)C(N)=O)[C@@H](C)O)C(C)C)NC(=O)[C@H](CC(=O)O)NC(=O)CNC(=O)[C@H](C(C)C)NC1=O)[C@@H](C)O [MCL-1 SAHB]	–	–	–	–	–	–	–	–	–	–	–	–	–	did not engage	striking fluorescence of pinosomes at early time points and subsequent colocalization with Mitotracker
